According to paper PMC9673142, “1,3-Diarylpyrazolyl-acylsulfonamides Target HadAB/BC Complex in Mycobacterium tuberculosis” (ACS Infectious Diseases, 2022):

Tested on: Mtb
Experiment: microbe, parasite or virus in culture
Settings: Mycobacterium tuberculosis, read-out: Mtb MBC (Middlebrook 7H9/glucose/ADC/Tx)

SMILES	MBC [µM]
CS(=O)(=O)NC(=O)CCc1cn(-c2ccc(Br)cc2)nc1-c1ccncc1 [Compound 1]	7.6 (≈ 3.41 µg/mL)
CS(=O)(=O)NC(=O)CCc1cn(-c2ccc(Cl)cc2)nc1-c1ccc(Cl)cc1 [Compound 2]	10 (≈ 4.38 µg/mL)

In brackets after ≈: the same amount, converted by molar mass.
